Earlier results in patent US10195187B2, “Oxybutynin-xanomeline transdermal therapeutic system combinations” (Chase Pharmaceuticals Corporation, priority 2015, dated 2019).

Tested on: muscarinic receptors
Details: oral and iontophoretic patch administration; cited from earlier work

**Q.** With `CCN(CC)CC#CCOC(=O)C(O)(c1ccccc1)C1CCCCC1` (stereo not shown) [oxybutynin, 4-diethylaminobut-2-ynyl 2-cyclohexyl-2-hydroxy-2-phenylethanoate] as the compound, how does the “effectiveness relative to other muscarinic antagonists in combination with muscarinic agonists” value read?
**A.** Its value is “less effective than the other muscarinic antagonists”.
